{"source": "patent US9428447B2", "about": "“Bis-(aryl/heteroaryl)-methylene compounds, pharmaceutical compositions containing same and their use for treating cancer” (The Royal Institution For The Advancement of …, priority 2011, dated 2016)", "format_in_all_cases": "cell-based, human", "key": {"SCC4 cells": {"test_system": "SCC4 cells", "test": "MTS cell proliferation assay, SCC4", "details": "vitamin D resistant SCC4 cells; FIGS. 7c, 8 and 9", "source_text": "Dose-dependent effects of compounds on cell cycle progression was monitored using a CellTiter 96 Aqueous Non-Radioactive Cell Proliferation Assay Kit (Promega). The assay composed of solutions of a novel tetrazolium compound (MTS) and an electron coupling reagent (phenazine methosulfate; PMS). MTS is reduced by metabolically active cells into a soluble formazan product that absorbs at 490 nm. The quantity of formazan product absorbing at 490 nm is directly proportional to the number of living cells."}, "[1]": {"test_system": "total intracellular HDAC activity", "test": "HDACi activity with fluorogenic substrate in live SCC25 cells", "details": "increasing concentration, FIG. 2a, b", "description": "(§1) Compounds were also tested along with 1,25D for HDACi activity using a fluorogenic substrate in vivo in SCC25 and SCC4 cells (FIGS. 2a, b). This assay measures the inhibition of total intracellular HDAC activity and determines the capacity of compounds to inhibit HDACs in the form of their naturally occurring complexes."}, "[2]": {"test_system": "total intracellular HDAC activity", "test": "HDACi activity with fluorogenic substrate in live SCC4 cells", "details": "increasing concentration, FIG. 2a, b", "description": "as §1"}}}
{"smiles": "C=C1/C(=C\\C=C2/CCC[C@]3(C)[C@@H]([C@H](C)CCCC(C)(C)O)CC[C@@H]23)C[C@@H](O)C[C@@H]1O", "note": "[1,25D, 1,25-dihydroxyvitamin D, reference compound]", "values": [{"measurement": "antiproliferative potency (MTS)", "setting": "SCC4 cells", "value": "ineffective"}, {"measurement": "inhibition of total intracellular HDAC activity (substrate deacetylation)", "setting": "[1]", "value": "had no effect on substrate deacetylation"}, {"measurement": "inhibition of total intracellular HDAC activity (substrate deacetylation)", "setting": "[2]", "value": "had no effect on substrate deacetylation"}]}
